# Data taken from US5811512A, “Non-peptide peptidomimetics and related cyclic hexapeptides” (The Trustees of the University of Pennsylvania, priority 1996, dated 1998).
# The chains behind the UniProt entries cited, without tags or fusion partners.
# UniProt P25103, whole entry: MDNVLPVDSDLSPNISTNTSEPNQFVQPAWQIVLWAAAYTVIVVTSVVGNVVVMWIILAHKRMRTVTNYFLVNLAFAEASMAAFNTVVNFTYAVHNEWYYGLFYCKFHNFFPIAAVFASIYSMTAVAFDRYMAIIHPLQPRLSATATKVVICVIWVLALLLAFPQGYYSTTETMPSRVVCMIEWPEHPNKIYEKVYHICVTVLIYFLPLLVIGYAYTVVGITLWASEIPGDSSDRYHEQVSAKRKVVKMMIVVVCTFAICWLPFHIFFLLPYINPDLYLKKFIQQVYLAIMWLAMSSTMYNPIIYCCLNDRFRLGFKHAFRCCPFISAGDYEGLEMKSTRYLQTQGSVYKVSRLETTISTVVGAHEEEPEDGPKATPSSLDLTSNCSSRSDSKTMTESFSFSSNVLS
# Molecular target: human neurokinin-1 receptor (NK1R) (Homo sapiens, UniProt P25103)
# Assay: Substance P receptor binding: 125I-substance P displacement from human NK1R expressed in COS cells
# Details: read-out: IC50 (concentration required to inhibit the binding of substance P to the human neurokinin-1 receptor by 50%); 125I-SP, COS cells expressing human NK1R
# Description: The affinity of a variety of compounds for the substance P receptor was determined employing the following procedure.
# A. Receptor Expression in COS
# To express the cloned human neurokinin-1 receptor (NK1R) transiently in COS, the cDNA for the human NK1R was cloned into the expression vector pCDM9 which was derived from pCDM8 (Invitrogen) by inserting the ampicillin resistance gene (nucleotide 1973 to 2964 from Bluescript SK+) into the Sac II site. […]
# The binding assay of human NK1R expressed in COS cells is based on the use of ^125 I-substance P (^125 I-SP, from DuPont, Boston, Mass.) as a radioactively labeled ligand which competes with unlabeled substance P or any other ligand for binding to the human NK1R. […] The bound radioactivity was separated from unbound radioactivity by GF/C filter (Brandel, Gaithersburg, Md.) which was pre-wetted with 0.1 polyethylenimine. The filter was washed with 3 ml of wash buffer (50 Tris pH 7.5, 5 mM MnCl21 150 mM NaCl) three times and its radioactivity was determined by gamma counter.
# A variety of compounds were tested according to the COS cell procedure. The concentration of compound required to inhibit the binding of substance P to the human neurokinin-1 receptor by 50% was measured.
structure (smiles),measurement,value
CO[C@@H]1O[C@H](COCCCCCNC(C)=O)[C@@H](OCc2ccccc2)[C@H](OCc2ccccc2)[C@H]1OCc1ccccc1,IC50,400 nM
